High-throughput results as filed in PubChem BioAssay.
Nrf2 inh: Nrf2 pathway inhibition; Potency, µM (titrated, usually from 46 µM), inactives show at the top dose activity change, negative = inhibition, actives largely listed as inhibitors; AID 504444; A549 ARE-Fluc reporter, luciferase luminescence, 18-24 h; 2.1% of 360,000 active; further: potency means the concentration at half of the fitted maximal effect; on the % scale 0 is the no-effect control and ±100 the full control effect; nearly all actives have a fitted effect of over 60% in size
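A549 ARE_Fluc cells (5000/well, 5% FBS OPTI-MEM) pre-incubated 2 h, then treated with compounds 18-24 h at 37C/5% CO2 in concentration-response. CellTiter-Fluor viability read first; BugLite luciferase luminescence after 15 min at room temperature gives Nrf2 activity.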
ClpP mod: qHTS Assay for Activators of ClpP; purified B. subtilis ClpP, FRET peptide cleavage, 20 min; Potency, µM (top dose mostly 57.5 µM), without a hit: at the top dose activity change, negative = active; 1.9% of 340,000 active; AID 651965, 2013; active means well fitted falling curve with a large enough effect; inconclusive means small, poorly fitted or top-dose-only effect; inactive means no such curve, though single readings can be large or run the other way; further: potency means the concentration at half of the fitted maximal effect; the source files actives as falling curves though it sought activators and does not explain the sign; nearly all actives have a fitted effect of over 65% in size
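Buffer: 100 mM Tris/HCl pH8, 100 mM KCl, 0.05% low protease BSA, 2.5% glycerol, 0.01% Tween-20. ClpP 10 microg/mL final; 20 min RT; delta FRET normalized to ADEP and DMSO controls.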
miR-21 FLuc: miR-21 reporter, rising signal | HeLa miR-21 FLuc reporter, luciferase, 48 h | Potency, µM (highest dose often 38.3 µM), for inactives: at the top dose reporter change, positive = more light | 340,000 tested, under 10 active | AID 2288; active = well fitted rising curve with a large enough effect; inconclusive = small, poorly fitted or top-dose-only effect; inactive = no such curve, though single readings can be large or run the other way;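 further: % of control where 0% means no effect; miR-21 action dims this reporter so a rising signal means less miR-21 action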
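HeLa cells endogenously expressing miR-21, stably carrying CMV-driven firefly luciferase with a downstream miR-21 binding site, 2000 cells/well. Titrations up to approximately 40 uM, 48 hours; luciferase luminescence read.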
A549 viability: kills or reduces viability of A549 cells in Nrf2 counter-screen; A549 ARE-Fluc cells, CellTiter-Fluor viability, 18-24 h; Potency, µM (series often up to 46 µM), without a hit: top-dose activity change, negative = cytotoxicity, hits mostly inhibitors; 0.16% of 390,000 active; further: potency means the concentration at half of the fitted maximal effect; on the % scale 0 is the no-effect control and ±100 the full control effect
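A549 ARE-Fluc cells in 5% FBS OPTI-MEM, 5000 cells/well, rested 2 h then exposed to compounds in concentration-response for 18-24 h at 37 °C. Viability by CellTiter-Fluor fluorescence (Ex 405/Em 525) after 30 min; luciferase luminescence (BugLite, 15 min, RT) read afterwards.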
Nrf2 activator: activators of Nrf2 (ARE) signaling. AREc32 ARE-luciferase reporter (MCF7-derived line), luminescence, 24 h. Potency, µM (highest dose often 46.1 µM), without a hit: at the highest dose activation, hits mostly activators. 0.31% of 410,000 active; further: potency means the concentration at half of the fitted maximal effect; % of control where 0% means no effect; nearly all actives have a fitted effect of over 65% in size
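AREc32_Fluc, 1000 cells/well, OPTI-MEM + 5% FBS, o/n 37 deg C 5% CO2; 23 nL cpd by pin tool, 24 hr; Steady-Glo 30 min RT, luminescence.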
TCR act: activators of T cell receptors; Potency, µM (top dose mostly 9.22 µM), without a hit: at the highest dose activation of IL-2 secretion, usual class: activators; primary human leukocytes, anti-CD3, IL-2 HTRF, 48 h; 330,000 tested, under 10 active; further: % of control where 0% means no effect
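HTRF read-out of IL-2 secretion: europium cryptate donor excited at 320nm, d2 acceptor emission at 665nm. Cells were primary human leukocytes incubated 48 hr with compounds and a-CD3 beads, supplying TCR signal only.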
* hit, by the source's call; [ ] = remark or other dose. Compounds with a hit are over-represented: about 3.7% of the library has one in this group of screens. Unless noted, the call rests on the fitted dose curve; in most records, active means well fitted curve in the direction sought with a large enough effect; inconclusive means small, poorly fitted or top-dose-only effect, or another doubt; inactive means no such curve, though single readings can be large; an effect the other way counts as inactive or inconclusive.

What do the screens show for `COc1ccc(-c2cc(C(=O)O)c3sc(N4CCCCC4)nc3n2)cc1OC`?
Nrf2 inh: 11%; ClpP mod: 10µM*; miR-21 FLuc: -11%; A549 viability: -10%; Nrf2 activator: 1%; TCR act: -9%

What do the screens show for `Cc1c(Cl)cccc1NC(=O)CCCn1nc(C)c2sc3ccccc3c2c1=O`?
Nrf2 inh: 2%; ClpP mod: -11%; miR-21 FLuc: -13%; A549 viability: -5%; Nrf2 activator: 7%

Results for CCCc1ncc(CN2CCC(C(=O)Nc3cccc(-c4cscn4)c3)CC2)cn1 ?
Nrf2 inh: -18%; ClpP mod: -2%; miR-21 FLuc: 21%; A549 viability: -4%; Nrf2 activator: 4%; TCR act: -5%

How did COc1ccc(C(NC(=O)C2CCN(C/C=C/c3ccc(OC(C)=O)c(OC)c3)CC2)c2ccccn2)cc1 (stereo unspecified) do in these assays?
ClpP mod: -3%; Nrf2 activator: 4%

Results for CC(C)(C)c1ccc(C(=O)C[n+]2cccc(Br)c2)cc1 ?
ClpP mod: 0%

Results for Cc1ccc(Cn2c(=O)n(CC3CCC(C(=O)N4CCC(C)CC4)CC3)c(=O)c3sccc32)cc1 (stereo unspecified) ?
Nrf2 inh: -17%; ClpP mod: -1%; miR-21 FLuc: -1%; A549 viability: -2%; Nrf2 activator: -1%

How did Cc1ccccc1Cn1c(=O)n(CC2CCC(C(=O)N3CCC(C)CC3)CC2)c(=O)c2sccc21 (stereo unspecified) do in these assays?
Nrf2 inh: 23µM*; ClpP mod: -5%; miR-21 FLuc: 20%; A549 viability: inconclusive; Nrf2 activator: -1%

What do the screens show for `Cc1ccc(CSC2=NC(C)(C)Nc3ccccc32)c(C)c1`?
Nrf2 inh: inconclusive; ClpP mod: -18%; miR-21 FLuc: 29%; A549 viability: 6%; Nrf2 activator: 3%

Results for COC(=O)c1c(-c2cccs2)csc1NC(=O)CN1CCOCC1 ?
Nrf2 inh: 6.5µM*; ClpP mod: -5%; miR-21 FLuc: 0%; A549 viability: -4%; Nrf2 activator: 3%; TCR act: 6%

How did COC(=O)c1c(-c2cccs2)csc1NC(=O)COc1ccc(C(C)C)cc1 do in these assays?
Nrf2 inh: -16%; ClpP mod: 28µM*; miR-21 FLuc: -4%; A549 viability: 4%; Nrf2 activator: 0%

Part of the list above in order of formula weight, low to high:
How did COC(=O)c1c(-c2cccs2)csc1NC(=O)COc1ccc(C(C)C)cc1 do in these assays?
Nrf2 inh: -16%; ClpP mod: 28µM*; miR-21 FLuc: -4%; A549 viability: 4%; Nrf2 activator: 0%

Results for Cc1ccc(Cn2c(=O)n(CC3CCC(C(=O)N4CCC(C)CC4)CC3)c(=O)c3sccc32)cc1 (stereo unspecified) ?
Nrf2 inh: -17%; ClpP mod: -1%; miR-21 FLuc: -1%; A549 viability: -2%; Nrf2 activator: -1%

How did COc1ccc(C(NC(=O)C2CCN(C/C=C/c3ccc(OC(C)=O)c(OC)c3)CC2)c2ccccn2)cc1 (stereo unspecified) do in these assays?
ClpP mod: -3%; Nrf2 activator: 4%

(more compounds)
What do the screens show for `Cc1ccc(CN2CCN(C(=O)/C=C/[C@H]3O[C@@H](n4cc(C)c(=O)[nH]c4=O)C[C@@H]3O)CC2)cc1`?
ClpP mod: 0%; Nrf2 activator: -1%

What do the screens show for `CCC(C)Nc1nc2c(c(=O)n(C)c(=O)n2C)n1Cc1ccc(Cl)cc1` (stereo unspecified)?
Nrf2 inh: inconclusive; ClpP mod: -4%; miR-21 FLuc: 18%; A549 viability: inconclusive; Nrf2 activator: 3%; TCR act: -5%

Results for Cc1ccc(Cn2c(NCCc3ccccc3)nc3c2c(=O)n(C)c(=O)n3C)cc1 ?
Nrf2 inh: 15µM*; ClpP mod: -1%; miR-21 FLuc: -7%; A549 viability: -5%; Nrf2 activator: -1%; TCR act: 4%

How did CCNc1nc2c(c(=O)n(C)c(=O)n2C)n1Cc1ccc(Cl)cc1 do in these assays?
Nrf2 inh: 9.2µM*; ClpP mod: 0%; miR-21 FLuc: 20%; A549 viability: -5%; Nrf2 activator: 0%; TCR act: 2%

Results for Cn1c(=O)c2c(nc(NCc3cccnc3)n2Cc2ccc(Cl)cc2)n(C)c1=O ?
Nrf2 inh: inconclusive; ClpP mod: 3.2µM*; miR-21 FLuc: 6%; A549 viability: -4%; Nrf2 activator: 3%; TCR act: 5%

What do the screens show for `Cn1c(=O)c2c(nc(NCc3ccco3)n2CCc2ccccc2)n(C)c1=O`?
Nrf2 inh: 21µM*; ClpP mod: -1%; miR-21 FLuc: 14%; A549 viability: -15%; Nrf2 activator: 8%; TCR act: -146%

Results for Brc1cccc(-c2nnn3c2nc(N2CCCCC2)c2ccccc23)c1 ?
Nrf2 inh: 7%; ClpP mod: -14%; miR-21 FLuc: 1%; A549 viability: 4%; Nrf2 activator: 2%

What do the screens show for `O=C(Nc1cccc2cccnc12)c1ccc(-c2cccc(Cl)c2)o1`?
Nrf2 inh: 6%; ClpP mod: -14%; miR-21 FLuc: -2%; A549 viability: 2%; Nrf2 activator: 4%

How did COc1ccccc1/C=C/c1cncc(/C=C/c2ccccc2OC)c1 do in these assays?
ClpP mod: -7%

What do the screens show for `COCCNc1nc2c(c(=O)n(C)c(=O)n2C)n1Cc1c(F)cccc1Cl`?
Nrf2 inh: 18µM*; ClpP mod: 0%; miR-21 FLuc: 5%; A549 viability: -7%; Nrf2 activator: -1%

How did Cn1c(=O)c2c(nc(NCc3ccccc3)n2Cc2ccc(F)cc2)n(C)c1=O do in these assays?
miR-21 FLuc: 1%; TCR act: -1%[46.1 µM]

Results for Cn1c(=O)c2c(nc(N/N=C/c3ccc(OC(=O)c4ccco4)cc3)n2Cc2ccccc2)n(C)c1=O ?
Nrf2 inh: 16µM*; ClpP mod: 28µM*; miR-21 FLuc: 1%; A549 viability: -20%; Nrf2 activator: 4%; TCR act: -1%[46.1 µM]

What do the screens show for `CCCNc1nc2c(c(=O)n(C)c(=O)n2C)n1Cc1ccc(F)cc1`?
Nrf2 inh: 15µM*; ClpP mod: 0%; miR-21 FLuc: 15%; A549 viability: -16%; Nrf2 activator: 0%; TCR act: 3%

Results for Cn1c(=O)c2c(nc(N/N=C/c3cccs3)n2Cc2ccccc2)n(C)c1=O ?
Nrf2 inh: inconclusive; ClpP mod: -1%; miR-21 FLuc: -13%; A549 viability: 0%; Nrf2 activator: 0%; TCR act: -6%[46.1 µM]

How did Cc1cc(C)cc(-n2ccnc2SCC(=O)Nc2ccccc2F)c1 do in these assays?
ClpP mod: 0%; miR-21 FLuc: 15%; A549 viability: 4%; Nrf2 activator: 0%

Results for O=C1NC[C@H](CCCCN2C[C@H](Cc3ccc(O)cc3)N(CCc3ccc(O)cc3)C(=O)C2=O)N(CCc2ccc(O)cc2)C1=O ?
ClpP mod: 1%; Nrf2 activator: -1%

What do the screens show for `c1ccc2nc3[nH]cnc3nc2c1`?
Nrf2 inh: 3%; ClpP mod: 22µM*; miR-21 FLuc: -11%; A549 viability: -2%[1.84 µM]; Nrf2 activator: 0%
